From ChEMBL document CHEMBL1124044, “4-N-hydroxy-L-2,4-diaminobutyric acid. A strong inhibitor of glutamine synthetase” (J Med Chem, 1988) come the findings set out here.

The test system of test [1] is Glutamine synthetase (Ovis aries). Conditions: at 0.1 mM.
Test [2] has the same test system. To be noted: at 0.2 mM.
The test system is the same in test [3]. Conditions: at 0.5 mM.
The subject of test [4] is Glutamine synthetase (Glycine max). Conditions: at 0.1 mM.
Test [5] shares this test system. To be noted: at 0.2 mM.
For test [6] the test system is unchanged. Conditions: at 0.5 mM.

Molecules are shown by their SMILES.

Consider `NC(CCNO)C(=O)O` (stereo unspecified), for which the inhibition in test [1] was 80%; in test [2], 92%; in test [3] it was 100%; in test [4] it was 47%; in test [5] it was 64%; in test [6], 84%.
